How the values were obtained:
[1] = T-DM1 0.25 nmol day 0 with 2.5 Gy days 1, 2 and 3
OE19 cells = experiment: Alamar blue cell viability, OE19 cells; type: cell-based, human; conditions: HER2+ OE19 cells, Fig. 3c

**Q.** Which mouse body weight [1] does the source give for ado-trastuzumab emtansine [T-DM1] here?
**A.** Its mouse body weight is “maintained their weight”.

**Q.** And the “cytotoxic potency compared with paclitaxel, cisplatin, trastuzumab, lapatinib, erlotinib” value (OE19 cells)?
**A.** The value was “more potent cytotoxic drug”.
